# Results: US12162865B2, “Methods of treating cancer” (Epizyme, Inc., priority 2012, dated 2024)
# What was measured:
# [1] = system: SMARCB1 regulated genes in G401 cells; test: Gene expression analysis (qPCR), G401 cells; type: cell-based; conditions: 1 μM, up to 7 days
# [2] = system: H3K27 methylation in OCI-LY19 EZH2 wild-type lymphoma cells
# [3] = system: H3K27Me3 in PBMCs, bone marrow and skin
# [4] = system: subcutaneous G401 xenografts; conditions: tumors harvested on day 21; all doses (Example 1)
smiles,measurement,setting,value
"CCN(c1cc(-c2ccc(CN3CCOCC3)cc2)cc(C(=O)NCc2c(C)cc(C)[nH]c2=O)c1C)C1CCOCC1 [Compound A, N-((4,6-dimethyl-2-oxo-1,2-dihydropyridin-3-yl)methyl)-5-(ethyl (tetrahydro-2H-pyran-4-yl)amino)-4-methyl-4′-(morpholinomethyl)-[1,1′-biphenyl]-3-carboxamide]","expression of hedgehog pathway genes, MYC and EZH2",[1],reduced
same,histone methyl marks affected,"[2]; OCI-LY19, 2.7 μM, 4 days","the only methyl marks affected were the H3K27Me1, H3K27Me2 and H3K27Me3"
same,H3K27 acetylation,[2]; incubation with Compound A,increase in H3K27 acetylation
same,H3K27Me3 positive cells in epidermis of skin (IHC),"[3]; 100, 300, or 1000 mg/kg oral",dose dependent reduction in H3K27Me3 positive cells
same,tolerability,"[3]; females, 1000 mg/kg group, euthanized on day 23",tolerability issues
same,plasma levels,"[3]; male and female rats, 100, 300, or 1000 mg/kg oral",increased dose-dependently
same,EZH2 target inhibition in tumors,[4],strong EZH2 target inhibition
